Assay results from PMC10582583, “The novel cyclophilin inhibitor C105SR reduces hepatic ischaemia–reperfusion injury via mitoprotection” (JHEP Reports, 2023).

Protein sequences, listed by entry. Tags and fused reporters are not part of them. Residues count along the entry.
UniProt P30405, 30-207 limits assumed: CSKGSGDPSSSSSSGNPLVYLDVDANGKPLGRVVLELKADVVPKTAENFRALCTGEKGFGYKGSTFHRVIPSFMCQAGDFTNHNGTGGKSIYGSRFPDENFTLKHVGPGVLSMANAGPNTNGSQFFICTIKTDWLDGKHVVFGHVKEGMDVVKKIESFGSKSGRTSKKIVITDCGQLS

Columns and labels:
Format in all cases: biochemical
CypD = CypD (Homo sapiens, UniProt P30405); assay: CypD PPIase activity, chymotrypsin-coupled assay; settings: read-out: CypD PPIase activity IC50; Table 1
[1] = system: isolated mouse liver mitochondria; assay: Ca2+-induced mitochondrial swelling assay; settings: read-out: Mitochondrial swelling IC50, energised isolated mouse liver mitochondria
[2] = system: isolated mouse liver mitochondria; assay: Calcium retention capacity (CRC) assay in isolated liver mitochondria

SMILES	IC50 (CypD) [nM]	further results
CSc1ccccc1C1CCCN1C(=O)C(NC(=O)NCc1ccc(NCc2ccccc2F)cc1)c1ccccc1 (stereo not shown)	160	–
CSc1ccccc1C1CCCN1C(=O)C(NC(=O)NCc1cc(F)cc2c1OCCO2)c1ccccc1 (stereo not shown)	480	–
COc1ccc(OC)c(C(NC(=O)NCc2ccc3c(c2)CCCN3)C(=O)N2CCCC2c2ccccc2SC)c1 (stereo not shown)	650	–
CSc1ccccc1C1CCCN1C(=O)C(NC(=O)NCc1ccc(NCC2CCCNC2)cc1)c1ccccc1 (stereo not shown)	260	IC50 [1]: 2560 nM; maximal mitochondrial CRC ([2]; compound at 100 μM (Fig. 1C), basal 160 ± 8): 473 ± 38 nmol Ca2+/mg of mitochondrial; EC50 ([2]; read-out: Calcium retention capacity EC50, isolated mouse liver mitochondria): 10.2 µM
CSc1ccccc1C1CCCN1C(=O)C(NC(=O)NCc1cccc2c1CCCN2C(C)=O)c1ccccc1 (stereo not shown)	280	–
CSc1ccccc1C1CCCN1C(=O)C(NC(=O)NCc1ccc(O)c2ncccc12)c1ccccc1 (stereo not shown)	630	–
CSc1ccccc1C1CCCN1C(=O)C(NC(=O)NCc1cccc2c1OC(F)(F)O2)c1ccccc1 (stereo not shown)	720	–
COc1ccc(OC)c(C(NC(=O)NCc2ccc(N)cc2)C(=O)N2CCCC2c2ccccc2SC)c1 (stereo not shown)	320	–
COc1ccc(Br)cc1C(NC(=O)NCc1ccc(N)cn1)C(=O)N1CCCC1c1ccccc1SC (stereo not shown)	500	–
CSc1ccccc1C1CCCN1C(=O)C(NC(=O)NC[C@H]1CC[C@H](N)CC1)c1ccccc1 (stereo partly shown)	150	–
